Sequences of proteins named here, by UniProt entry; tags and fusion partners are left off.
UniProt P06493, whole entry, species assumed: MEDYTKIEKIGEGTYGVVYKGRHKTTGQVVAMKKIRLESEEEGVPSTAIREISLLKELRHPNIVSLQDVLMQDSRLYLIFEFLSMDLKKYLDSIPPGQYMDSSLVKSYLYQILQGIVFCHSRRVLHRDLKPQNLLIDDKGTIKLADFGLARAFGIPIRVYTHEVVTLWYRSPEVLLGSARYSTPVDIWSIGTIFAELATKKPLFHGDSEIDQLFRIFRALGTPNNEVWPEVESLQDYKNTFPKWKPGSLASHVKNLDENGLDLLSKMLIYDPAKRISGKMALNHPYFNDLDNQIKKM

In patent publication EP1070068B2, “GRANULATIMIDE DERIVATIVES FOR USE IN CANCER TREATMENT” (THE UNIVERSITY OF BRITISH COLUMBIA, priority 1998, dated 1999):

Target: CDK1 (Homo sapiens, UniProt P06493)
Test: Protein kinase inhibition assay (γ-32P ATP)
Type: biochemical
Conditions: room temperature, 15 minutes
Procedure: 100% DMSO was used as a negative control.
Kinase reactions are performed at room temperature. The reaction mixture contains diluted test compound, the protein kinase, substrate and γ-^32P ATP. The mixture is incubated for 15 minutes, and the reaction mix spotted, and counted.

For `O=C1NC(=O)c2c1c1c3ccccc3[nH]c1n1cncc21` [Isogranulatimide], the IC50 was 10 µM.
